From patent US20200270233A1, “DHFR INHIBITORS, COMPOSITIONS, AND METHODS RELATED THERETO” (Vyera Pharmaceuticais LLC, priority 2017, published 2020)

System: P. falciparum DHFR (pfDHFR)
Assay type: biochemical
Settings: Table 20; hDHFR IC50/pfDHFR IC50

With `Nc1ncc(N2CCN(c3ccccc3)CC2)c(N)n1` [Compound 4, 5-(4-phenylpiperazin-1-yl)pyrimidine-2,4-diamine] the “Average DHFR selectivity (h/pf)* − DHFR IC50” value was 6660.
